Data on 1 substance can be found in US7132554B2, “Therapeutic synergy of anti-cancer compounds” (Bristol-Myers Squibb Company, priority 2004, dated 2006).

Data set [1] has as its system Human L2987 lung carcinoma xenografts. The data set is described as follows: Antitumor testing versus s.c. L2987 lung carcinoma xenografts in nude mice. It is filed as in vivo. The conditions noted are these: pilot study, q3dx4 from Day 22, cetuximab 1 mg/mouse i.p. How it is done:
(§1) Compounds. The oral taxane (Ia) was synthesized by Bristol-Myers Squibb (BMS) chemists. The compound was dissolved initially in equal portions of Cremophor EL and ethanol, followed by aqueous dilution to yield final ethanol and Cremophor EL concentrations of 10%.
(§2) Animals. Athymic (“nude”) mice, 5–6 weeks of age, purchased from Harlan Sprague Dawley (Indianapolis, Ind.), were quarantined for ˜2 weeks before their use for tumor propagation and drug efficacy testing. They were fed food and water ad libitum. All studies involving these animals were conducted in accordance with NIH (Bethesda, Md.) and Bristol Myers-Squibb animal care and use guidelines.
Tumors. Human L2987 lung and GEO colon carcinomas were maintained in nude mice by serial s.c. passage. All efficacy testing involved tumors implanted s.c. in nude mice.
Antitumor Testing. A detailed description of the methods used to assess antitumor effects has been provided previously in Rose, W. C., Fairchild, C., and Lee, F. Y. F. Preclinical antitumor activity of two novel taxanes. Cancer Chemother. Pharmacol. 47: 97–105, 2001. […]
(§3) Definitions of MTD and OD have been published previously in the above-noted article. […] Cured mice are defined as those whose tumors are ≦35 mg when assessed 10 tumor volume doubling times (based on control tumor growth between 500 mg and 1 g) post-termination of treatment. […]

Data set [2] has the same test system. Particulars: previously described; cited from earlier work.
Data set [3] in a line: Tolerability (body weight change, deaths, MTD) in nude mice bearing GEO tumors. It is filed as in vivo. The conditions noted are these: q3dx6 from Day 11; cetuximab 1 mg/mouse i.p. How it is done:
as §1, §2
Definitions of MTD and OD have been published previously in the above-noted article. Therapeutic results were reported at the OD, i.e., that yielding the best effect without exceeding the MTD. Therapeutic synergy represents a therapeutic effect achieved with a tolerated regimen of a combination treatment that exceeds the optimal effect achieved at any tolerated dose of monotherapy associated with the same drugs used in the combination. Cured mice are defined as those whose tumors are ≦35 mg when assessed 10 tumor volume doubling times (based on control tumor growth between 500 mg and 1 g) post-termination of treatment. […]

Data set [4] deals with Human GEO colon carcinoma xenografts. The data set is described as follows: Antitumor testing versus s.c. GEO colon carcinoma xenografts in nude mice. Type of data set: in vivo. The conditions noted are these: q3dx6 from Day 11, cetuximab 1 mg/mouse i.p. How it is done: as §1, §2
Tumors. Human L2987 lung and GEO colon carcinomas were maintained in nude mice by serial s.c. passage. All efficacy testing involved tumors implanted s.c. in nude mice. […]
Antitumor Testing. […] Briefly, therapeutic results are presented in terms of either cures and/or primary tumor growth inhibition determined by calculating the relative median times for drug-treated (T) and control (C) groups of mice to grow tumors of 1 g target size, and expressed as T-C values (in days). […]
as §3

For data set [5] the test system is unchanged. Particulars: known from earlier work; cited from earlier work.

For cetuximab [reference compound], the entries for the “LCK (log cell kill)” value in data set [1] and in data set [4] were 0.6 and 0.7, respectively. The T-C in data set [1] (tumor target 1.0 g) stood at 14.3 days; in data set [4] (tumor target 1.0 g), 10.0 days. Moreover, the “Antitumor activity described for L2987” value in data set [2] was “borderline levels of antitumor activity”. Moreover, the “Average body weight change” value in data set [3] is “no body weight loss”. In data set [5], the “Responsiveness of the GEO tumor model” value is “responsive”.
